# Binding of CDR-mutated scFvs to a peptide of the spike HR2 region

Source: Engelhart et al. 2022 (doi:10.1038/s41597-022-01779-4), MIT Lincoln Laboratory and A-Alpha Bio; data file from the FLAb repository.

Binding partner: SARS-CoV-2 spike HR2 peptide, sequence PDVDLGDISGINAS.

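Phage display of a naive human antibody library on the peptide gave the parent. The library (AAYL52) carries one to three amino acid substitutions per variant, with no insertions or deletions. In AlphaSeq, yeast of one mating type display the scFv and yeast of the other type display the target. After mating in shaken culture at 30 °C for 16 h, diploids were selected and their barcode pairs sequenced. Scores were corrected for input abundance and mapped to Kd with protein pairs of known affinity run in the same pool. There are three technical replicates.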

Parent scFv Ab-95: VH joined to VL by the linker GGGGSGGGGSGGGGS. Changes lie in the light chain CDRs alone.
VH: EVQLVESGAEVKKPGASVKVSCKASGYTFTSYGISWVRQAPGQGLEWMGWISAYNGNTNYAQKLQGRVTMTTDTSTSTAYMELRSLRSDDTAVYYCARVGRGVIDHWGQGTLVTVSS
VL: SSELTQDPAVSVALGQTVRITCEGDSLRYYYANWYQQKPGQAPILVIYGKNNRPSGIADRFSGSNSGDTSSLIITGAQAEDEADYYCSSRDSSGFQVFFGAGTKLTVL

Substitutions are numbered in sequence along the VL above, starting at 1 (not Kabat). The read-out is the apparent dissociation constant on a log10 scale (nM): the lower, the stronger. An entry "ND" has no value in the source: the pair was not observed among the diploids in that replicate. This suggests poor binding but is not conclusive. Parent in this assay: reference entry 2.31, copy in this library 2.25. Empty control strains, which show no peptide, gave a signal in 28% of pairings with library AAYL52; the median was 3.91 and 95% of these signals were weaker than 2.90. No background was subtracted. For each scFv, signals with the empty controls are counted beside the result, with their mean in brackets.

changes	replicates, log10 nM	signal with controls
K50S+N52L+P54M	2.17 1.93 1.81	5/9 (4.13)
Y30M+S88D+S92E	2.33 2.57 2.44	5/9 (4.49)
L27R+S93C	ND ND ND	1/9 (3.31)
D91G+S93H+V97Y	2.71 2.06 2.04	1/9 (3.56)
E23W+Y29T+Q96T	3.29 4.01 2.30	3/9 (4.61)
Y30T+N33V+N52E	4.04 2.67 ND	3/9 (3.69)
L27H+D91V+F95Y	2.44 2.07 1.59	2/9 (4.51)
L27A+N33D+R90D	4.34 ND ND	1/9 (4.40)
S26L+G49Q+R53F	ND ND ND	2/9 (3.69)
D25L+N52I+G94Q	ND 4.70 ND	1/9 (5.59)
Y29M+S89V+F95V	4.91 ND ND	1/9 (3.54)
N33E+N51E+S93G	3.35 3.77 ND	1/9 (3.33)
S26E+S55L+S92N	ND 4.55 ND	3/9 (4.03)
S88Q+S92E+F98Y	ND 4.46 2.17	0/9
A32C+S92Y	2.24 2.65 2.77	5/9 (4.13)
R90F+S93M+F98V	ND ND ND	5/9 (3.87)
S26H+Y31C+N33E	2.63 2.25 2.96	2/9 (3.37)
R28G+Y29Q+N52P	ND ND ND	0/9
L27C+A32H+S89E	3.37 ND ND	1/9 (3.85)
G24R+N33V+S55M	ND ND ND	3/9 (4.17)
S26F+N51E+N52L	ND ND ND	2/9 (3.70)
E23H+Y31I+D91M	3.09 3.13 4.01	1/9 (4.61)
K50P+F95M	2.33 2.15 2.12	3/9 (3.86)
Y30G+Y31C+V97L	1.70 1.65 1.33	7/9 (3.71)
R28M+Y30K+G49Q	2.64 2.72 1.89	1/9 (3.73)
D91K+V97Y+F98M	2.16 2.12 1.69	1/9 (3.76)
D25Y+S88H+G94L	2.95 2.55 2.70	1/9 (3.74)
S93A+Q96N	2.38 2.71 1.78	4/9 (4.30)
Y31Q+S55K+V97Y	2.85 2.88 2.58	4/9 (3.56)
N51C+P54V+S88C	ND 3.83 3.86	3/9 (4.07)
D25R+G49W+N51T	5.22 ND ND	4/9 (4.48)
D25W+Y30K+F98I	2.47 2.64 2.58	1/9 (3.06)
P54L+S55T+S93R	4.09 3.38 4.16	6/9 (3.51)
G49R+R53P+S89T	ND ND ND	3/9 (3.91)
E23G+R28K+S93L	2.24 2.07 0.98	1/9 (4.53)
D25Y+Y29A+K50H	2.44 2.34 2.49	2/9 (3.47)
Y29M+P54N+V97L	ND ND ND	0/9
S26Y+D91V+V97W	3.31 3.69 ND	4/9 (4.54)
Y29Q+N52W+R53F	ND ND ND	2/9 (4.69)

The first 6 entries again:

{"changes": "K50S+N52L+P54M", "replicates, log10 nM": "2.17 1.93 1.81", "signal with controls": "5/9 (4.13)"}
{"changes": "Y30M+S88D+S92E", "replicates, log10 nM": "2.33 2.57 2.44", "signal with controls": "5/9 (4.49)"}
{"changes": "L27R+S93C", "replicates, log10 nM": "ND ND ND", "signal with controls": "1/9 (3.31)"}
{"changes": "D91G+S93H+V97Y", "replicates, log10 nM": "2.71 2.06 2.04", "signal with controls": "1/9 (3.56)"}
{"changes": "E23W+Y29T+Q96T", "replicates, log10 nM": "3.29 4.01 2.30", "signal with controls": "3/9 (4.61)"}
{"changes": "Y30T+N33V+N52E", "replicates, log10 nM": "4.04 2.67 ND", "signal with controls": "3/9 (3.69)"}